In paper PMC10869840:

Key:
[1] = tested on: O=C(O)c1ccc(C(=O)OCCO)cc1; assay: purified protein; settings: TurboPETase, 65 °C, pH 8.0, 100 mM potassium phosphate, 6-60 mM MHET, 0.1 mg/mL enzyme, 15 min
[2] = tested on: CCCC(=O)Oc1ccc([N+](=O)[O-])cc1; assay: purified protein; settings: TurboPETase, 65 °C, pH 8.0, 10 mM potassium phosphate, 0.2-1.4 mM pNPB, 0.5 µg/mL enzyme, 3 min

“BhrPETase (bacterium HR29; A209R/A251C/A281C/D238K/F222I/F243T/H218S/W104L)” gave a Km [1] of 33.80 ± 7.23 mM, a kcat [1] of 3.67 ± 0.37 s⁻¹ and a Km [2] of 0.60 ± 0.04 mM. For the same substance, the kcat [2] was 147.78 ± 4.17 s⁻¹.
